# Measured affinities in a library of Ab-14 heavy chain variants

Data: MIT Lincoln Laboratory AlphaSeq set, Engelhart et al. 2022, doi:10.1038/s41597-022-01779-4, as distributed in FLAb.

Antigen: PDVDLGDISGINAS, a 14-residue peptide of the SARS-CoV-2 spike HR2 region.

Parent: Ab-14, a human scFv built as VH, the linker GGGGSGGGGSGGGGS, VL. Only the CDRs of the heavy chain vary.
VH: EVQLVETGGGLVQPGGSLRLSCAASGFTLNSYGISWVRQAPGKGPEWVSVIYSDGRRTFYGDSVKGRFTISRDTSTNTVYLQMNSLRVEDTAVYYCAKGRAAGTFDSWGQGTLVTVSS
VL: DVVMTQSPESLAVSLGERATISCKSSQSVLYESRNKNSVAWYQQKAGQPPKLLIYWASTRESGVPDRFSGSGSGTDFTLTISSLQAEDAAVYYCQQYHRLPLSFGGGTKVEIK

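AAYL49 was designed without a model: most single CDR substitutions and a random sample of double and triple ones. The scFvs were displayed on barcoded MATa yeast, the peptide on MATalpha yeast. Pairs that bind mate more often; barcode pairs of the diploids are counted by sequencing. The ratio of observed to expected reads was calibrated, replicate by replicate, on BCL2-family standards whose Kd was known from biolayer interferometry. Mating was done three times.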

Each variant is given by its three heavy chain CDRs, as the data file delimits them; those of the parent are GFTLNSYGIS, VIYSDGRRTFYGDSVK, GRAAGTFDS.
All variants listed here change A102 of the VH, counted from its first residue.
Values are log10 of the apparent Kd in nM; lower means stronger binding.
The mean shown is taken over the replicates in which the pair was detected.
A pair that was not seen in that replicate is written "nd"; this usually means weak binding, but a binder can also be missed.
Three control strains display no target. For library AAYL49, 15% of the pairings with them gave a signal, with a median of 4.06 and one signal in twenty below 2.83, so weak values seen in few replicates may be background.

GFTLNSYGIS, AIYSDGRRTFYGDSVK, GRAEGTFDS: nd, nd, nd.
GPTLNSYGLS, VIYSDGRRTFYGDSVK, GRALGTFDS: nd, nd, nd.
GFTLNSYGIS, VIYSDGRRTFYYDSVK, GRARDTFDS: nd, nd, nd.
LFTLNSYGIS, VTYSDGRRTFYGDSVK, GRATGTFDS: nd, nd, nd.
GFTLMSYGIS, VIYSDKRRTFYGDSVK, GRAYGTFDS: nd, nd, nd.
GFTLNSYGIS, FIYSDGRMTFYGDSVK, GRANGTFDS: nd, nd, nd.
GQTLNSYGIS, VIYSDGCRTFYGDSVK, GRAMGTFDS: nd, nd, 5.74.
GFTLNSYGIS, VIGSDGRCTFYGDSVK, GRAMGTFDS: 3.89, nd, nd.
GFTLNVYGIS, VIYSDGRRTFYGDSVK, GRANGTFDS: nd, nd, nd.
GFTLNSYGIS, VIYSDNRRTFYGDSDK, GRATGTFDS: 6.17, 5.13, 5.64 (mean 5.65).
GFTLNSYGIM, IIYSDGRRTFYGDSVK, GRASGTFDS: nd, nd, nd.
GFTLNSYGTS, VIYSDGRRTFYGDSMK, GRADGTFDS: nd, nd, nd.
GFTLCSQGIS, VIYSDGRRTFYGDSVK, GRAFGTFDS: nd, 3.21, 3.97 (mean 3.59).
GFTLNSIGIS, VIYSDGRRTFYGDSVK, GVAIGTFDS: 4.66, nd, nd.
GFTLNSYGIS, VIYSDGRRTFYGDEVK, GRAMGTFDS: nd, nd, nd.
GFTLNRAGIS, VIYSDGRRTFYGDSVK, GRACGTFDS: nd, nd, nd.
GFTLNSWGIS, VIYSDGRRTFYGDSVK, GRAQGTFDS: 4.19, 4.02, 3.82 (mean 4.01).
GFTLNSYGKS, VAYSDGRRTFYGDSVK, GRACGTFDS: nd, nd, nd.
GFTLNSYGIS, VPYSDGRRTFYGDSVK, GRADGNFDS: nd, 3.44, nd.
GFTLNSYGKS, VIYSDGRRTFKGDSVK, GRAYGTFDS: nd, nd, 3.40.
GFTLNSYGIS, VSYSDGRRTKYGDSVK, GRAFGTFDS: nd, nd, nd.
GFTLNSYGIS, VIYSDGRRTMYGDSVK, GRAPGTFDS: 0.93, 1.16, 1.18 (mean 1.09).
GFTLNSYHIS, VIYSDGRRTFYGDSVK, GRANQTFDS: nd, nd, 4.89.
GFTLNSYGIS, VIYSDHRPTFYGDSVK, GRALGTFDS: 4.47, nd, nd.
GFTLNSYGIS, VIYSDTRRTFYGDSVK, GRAMGTFDS: nd, nd, nd.
GFTLNSYGIS, VIYSDGWRTFYGTSVK, GRAMGTFDS: nd, nd, nd.
GFTLNSYGIQ, VIYSDGRRTFYGDSVK, GRAWGTWDS: nd, nd, 3.03.
GFTLNSRGIS, VIYSDGIRTFYGDSVK, GRAIGTFDS: nd, nd, nd.
GFTLNSYGMS, VIYSDGRRTFYTDSVK, GRACGTFDS: nd, nd, nd.
GFTLNSYGIS, VIYSDGRRTFYGFSVK, GRAMGTFDS: nd, nd, nd.
GFTLNSYGIS, VIYSDGRRCFYGDSVK, QRAQGTFDS: nd, 4.48, nd.

The opening 2 entries, copied out:

The variant GFTLNSYGIS, AIYSDGRRTFYGDSVK, GRAEGTFDS gave nd, nd, nd.
The variant GPTLNSYGLS, VIYSDGRRTFYGDSVK, GRALGTFDS gave nd, nd, nd.